Laboratory results reported in US11285212B2, “Targeted nanoparticles” (California Institute Of Technology, priority 2013, dated 2022).

Columns and labels:
MDA-MB-231 = test: Cytotoxicity assay, MDA-MB-231; format: cell-based; details: MDA-MB-231, HER2 −, 72 h; CPT-containing items on CPT content
BT-474 = test: Cytotoxicity assay, BT-474; format: cell-based, human; details: BT-474, HER2 +, 72 h; CPT-containing items on CPT content
MCF-7 = test: Cytotoxicity assay, MCF-7; format: cell-based; details: MCF-7, HER2 −, 72 h; CPT-containing items on CPT content
BT-474 xenograft tumors = details: 2.9 mg/kg
Description: Treatments began on day 1. […] All treatments were freshly prepared and given via intravenous tail vein injection. Injections were standardized at 150 μl per 20 g body weight of mice. […] Tumor sizes were recorded three times a week using caliper measurements (length×width^2/2) and health of the animals was continuously monitored. Animals were euthanized when tumor volumes exceeded 1000 mm^3. Six weeks after beginning of the treatment, animals were euthanized by CO2 asphyxiation.

[1] = tested on: breast cancer cell lines (BT-474, SKBR-3, MCF-7, MDA-MB-231); test: Cytotoxicity assay, breast cancer cell lines; format: cell-based; details: concentrations of up to 0.5 μM
SKBR-3 = test: Cytotoxicity assay, SKBR-3; format: cell-based; details: SKBR-3, HER2 +, 72 h; CPT-containing items on CPT content

With “Herceptin: human IgG1 antibody (Herceptin®)” the IC50 (MDA-MB-231) was “no effect”, the IC50 (BT-474) was “no value^a” and the IC50 (MCF-7) was “no effect”. For the same substance, the “Nend, animals surviving to end of study” value (BT-474 xenograft tumors; i.v. once per week for 2 weeks) was 6/6, the Mean tumor volume (BT-474 xenograft tumors; once per week for 2 weeks) was 278 mm^3 and the Median tumor volume (BT-474 xenograft tumors; once per week for 2 weeks) was 245 mm^3. For the same substance, the “NTRD, treatment related death” value (BT-474 xenograft tumors; once per week for 2 weeks) was 0/0/0, the “Neuthan, euthanized due to exceeding tumor size limit of 1000 mm^3” value (BT-474 xenograft tumors; once per week for 2 weeks) was 0/0/0 and the “result compared to control group” value (BT-474 xenograft tumors; once per week for 2 weeks) was “significant compared to control group”. For the same substance, the “effects in HER2− cell lines” value [1] was “no effects observed” and the IC50 (SKBR-3) was “no value^a”.
